In this test the target is T1, mouse aminoacylase 3 (mouse, UniProt Q91XE4 1-318).
T1 sequence (looked up): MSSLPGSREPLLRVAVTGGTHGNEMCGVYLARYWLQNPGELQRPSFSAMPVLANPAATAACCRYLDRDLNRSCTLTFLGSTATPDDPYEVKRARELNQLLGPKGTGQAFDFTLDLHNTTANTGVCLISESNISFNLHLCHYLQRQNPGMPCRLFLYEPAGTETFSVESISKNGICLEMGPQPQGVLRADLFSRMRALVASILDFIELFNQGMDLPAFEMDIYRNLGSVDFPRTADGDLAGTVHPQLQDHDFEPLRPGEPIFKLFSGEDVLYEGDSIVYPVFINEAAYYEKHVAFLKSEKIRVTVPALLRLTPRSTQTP
Description: SPR. Background: SPR reads the build-up and loss of mass on a sensor chip optically.

B1: hepatitis C virus core protein (1-177 a.a.) (natural protein)
chain: MSTLPKPQRKTKRNTIRRPQDVKFPGGGQIVGGVYLLPRRGPRLGVRATRKTSERSQPRGRRQPIPKARRPEGRTWAQPGYPWPLYGNEGCGWAGWLLSPRGSRPSWGPTDPRRRSRNLGKVIDTLTCGFADLMGYIPLVGAPLGGAARALAHGVRVLEDGVNYATGNLPGCSFSIF
In the case of B1, the Kd came to 10.1 ± 4.3 µM.

What is called Kd is the constant that tells how readily two partners part at equilibrium.
